Source: patent EP4786451A1, “COMPOUND TARGETING INTEGRIN AND USE THEREOF IN RNAI AGENT” (YUN HO BIO CO., LTD, priority 2023, dated 2025)
Where two headings read alike, the source gives them in different places.

Sequences of proteins named here, by UniProt entry; tags and fusion partners are left off. Residues count along the entry.
UniProt P05556, 21-728 limits assumed: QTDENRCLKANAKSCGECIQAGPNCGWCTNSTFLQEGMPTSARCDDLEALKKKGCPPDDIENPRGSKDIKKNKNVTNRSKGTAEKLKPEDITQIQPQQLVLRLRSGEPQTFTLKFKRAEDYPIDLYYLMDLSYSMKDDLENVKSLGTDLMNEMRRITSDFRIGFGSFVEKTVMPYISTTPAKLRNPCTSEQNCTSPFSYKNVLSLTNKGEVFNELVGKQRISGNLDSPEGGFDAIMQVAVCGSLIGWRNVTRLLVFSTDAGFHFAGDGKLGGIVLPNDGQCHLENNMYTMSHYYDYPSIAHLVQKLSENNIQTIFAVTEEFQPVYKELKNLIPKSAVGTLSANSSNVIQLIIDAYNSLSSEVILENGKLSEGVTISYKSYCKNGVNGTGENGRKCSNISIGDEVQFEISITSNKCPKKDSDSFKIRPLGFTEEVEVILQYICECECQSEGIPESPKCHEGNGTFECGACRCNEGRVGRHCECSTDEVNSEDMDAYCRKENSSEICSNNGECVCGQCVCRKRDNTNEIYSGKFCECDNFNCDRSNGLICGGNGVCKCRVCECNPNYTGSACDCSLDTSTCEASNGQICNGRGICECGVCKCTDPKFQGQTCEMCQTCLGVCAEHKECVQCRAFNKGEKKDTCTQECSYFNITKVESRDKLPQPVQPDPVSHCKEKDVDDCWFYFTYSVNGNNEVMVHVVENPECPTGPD
UniProt P06756, 31-992 limits assumed: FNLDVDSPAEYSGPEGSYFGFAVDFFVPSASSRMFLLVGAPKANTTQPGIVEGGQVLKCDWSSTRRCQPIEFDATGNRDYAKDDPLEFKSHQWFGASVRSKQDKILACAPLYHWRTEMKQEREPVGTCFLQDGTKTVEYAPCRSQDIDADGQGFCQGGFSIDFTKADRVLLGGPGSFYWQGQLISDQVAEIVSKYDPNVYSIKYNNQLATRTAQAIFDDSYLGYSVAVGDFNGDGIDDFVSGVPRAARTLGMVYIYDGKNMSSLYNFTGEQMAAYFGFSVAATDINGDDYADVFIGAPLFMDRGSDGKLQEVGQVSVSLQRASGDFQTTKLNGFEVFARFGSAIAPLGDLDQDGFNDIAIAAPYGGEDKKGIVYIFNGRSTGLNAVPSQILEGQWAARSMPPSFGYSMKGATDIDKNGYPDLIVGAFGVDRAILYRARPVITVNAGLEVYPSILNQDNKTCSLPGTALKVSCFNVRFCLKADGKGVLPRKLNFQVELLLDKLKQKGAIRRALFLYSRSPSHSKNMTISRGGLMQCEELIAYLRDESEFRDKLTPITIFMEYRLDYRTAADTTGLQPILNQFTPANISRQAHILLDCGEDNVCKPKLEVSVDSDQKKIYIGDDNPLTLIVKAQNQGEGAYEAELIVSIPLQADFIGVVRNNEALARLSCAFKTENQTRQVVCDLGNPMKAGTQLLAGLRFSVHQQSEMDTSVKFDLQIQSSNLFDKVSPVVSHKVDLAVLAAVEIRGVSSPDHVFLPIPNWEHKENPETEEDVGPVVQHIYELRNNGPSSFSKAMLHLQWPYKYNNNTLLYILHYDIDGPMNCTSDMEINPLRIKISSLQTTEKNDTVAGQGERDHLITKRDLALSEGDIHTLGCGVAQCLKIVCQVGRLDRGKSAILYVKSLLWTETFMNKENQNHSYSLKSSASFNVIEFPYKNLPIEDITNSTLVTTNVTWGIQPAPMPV
UniProt P18564, 22-707 limits assumed: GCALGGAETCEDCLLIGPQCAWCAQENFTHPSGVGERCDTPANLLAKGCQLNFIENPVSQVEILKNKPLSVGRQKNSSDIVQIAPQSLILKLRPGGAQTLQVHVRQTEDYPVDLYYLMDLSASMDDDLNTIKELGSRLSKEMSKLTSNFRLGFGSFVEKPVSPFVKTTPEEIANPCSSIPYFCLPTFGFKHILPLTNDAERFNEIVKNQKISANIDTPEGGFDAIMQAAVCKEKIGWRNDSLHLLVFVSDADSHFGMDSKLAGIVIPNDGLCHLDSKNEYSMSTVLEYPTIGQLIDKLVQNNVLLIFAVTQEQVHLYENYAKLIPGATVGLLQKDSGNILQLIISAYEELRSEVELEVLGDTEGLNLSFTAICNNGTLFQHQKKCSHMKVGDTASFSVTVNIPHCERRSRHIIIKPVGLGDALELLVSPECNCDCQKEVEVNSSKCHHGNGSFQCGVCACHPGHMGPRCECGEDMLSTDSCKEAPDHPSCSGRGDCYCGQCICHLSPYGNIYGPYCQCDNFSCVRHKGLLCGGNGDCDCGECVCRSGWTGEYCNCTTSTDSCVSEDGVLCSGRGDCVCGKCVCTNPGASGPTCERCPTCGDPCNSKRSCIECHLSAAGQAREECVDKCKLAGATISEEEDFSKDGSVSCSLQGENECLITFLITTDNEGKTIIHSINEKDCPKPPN
UniProt P18084, 24-719 limits assumed: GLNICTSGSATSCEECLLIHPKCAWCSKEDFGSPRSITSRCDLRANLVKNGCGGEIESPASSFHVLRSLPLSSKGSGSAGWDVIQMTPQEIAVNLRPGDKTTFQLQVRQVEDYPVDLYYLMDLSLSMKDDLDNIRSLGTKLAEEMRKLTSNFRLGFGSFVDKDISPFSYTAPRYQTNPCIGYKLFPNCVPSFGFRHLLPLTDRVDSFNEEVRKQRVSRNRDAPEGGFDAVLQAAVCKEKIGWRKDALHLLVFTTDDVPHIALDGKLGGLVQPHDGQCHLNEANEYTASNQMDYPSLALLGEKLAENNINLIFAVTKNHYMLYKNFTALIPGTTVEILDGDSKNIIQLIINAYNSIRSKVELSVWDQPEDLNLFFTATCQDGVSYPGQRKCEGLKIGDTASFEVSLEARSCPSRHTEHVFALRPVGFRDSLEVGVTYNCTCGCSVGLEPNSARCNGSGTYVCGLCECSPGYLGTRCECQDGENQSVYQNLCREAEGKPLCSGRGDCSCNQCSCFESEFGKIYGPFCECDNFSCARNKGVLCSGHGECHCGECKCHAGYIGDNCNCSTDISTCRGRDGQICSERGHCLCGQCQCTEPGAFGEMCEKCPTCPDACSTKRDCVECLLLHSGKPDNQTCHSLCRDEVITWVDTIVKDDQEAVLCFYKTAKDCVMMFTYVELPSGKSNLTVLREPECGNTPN

What was measured:
[1] = molecular target: Integrin αvβ1 Receptor (Homo sapiens, UniProt P05556+P06756); test: Fluorescence polarization (FP) binding activity to integrin αvβ1 receptor (competition with Cyclo[-RGDy-K(5-FAM)]); settings: read-out: IC50 (nM) αvβ1, Table 4, different integrin receptors
[2] = molecular target: Integrin αvβ6 Receptor (Homo sapiens, UniProt P06756+P18564); test: HTRF binding activity to integrin αvβ6 receptor (competition with LAP (TGF-beta 1))
[3] = molecular target: Integrin αvβ5 Receptor (Homo sapiens, UniProt P06756+P18084); test: HTRF binding activity to integrin αvβ5 receptor (competition with Vitronectin); settings: read-out: IC50 (nM) αvβ5, Table 4, different integrin receptors

For `Cc1cc(C)n(-c2cccc(C(CC(=O)O)CN3CC[C@@H](CCc4nc5c(cc4CNC(=O)CCOCCOCCOCCOCCN=[N+]=[N-])CCCN5)C3)c2)n1` (single isomer, unassigned), the IC50 [1] was 5.3 nM, the IC50 ([2]; Integrin αvβ6, HTRF, Table 3, several runs, each with Cilengitide and 1 as references) was 4.5 nM and the IC50 ([2]; read-out: IC50 (nM) αvβ6, Table 4, different integrin receptors) was 3.6 nM. The IC50 [3] was 0.8 nM.
